Values quoted from earlier work in patent US12233128B2, “Degraders that target ALK and therapeutic uses thereof” (DANA-FARBER CANCER INSTITUTE, INC., priority 2018, dated 2025).

Tested on: ALK-positive tumors
Settings: ALK-positive NSCLC, before resistance develops; cited from earlier work

| SMILES | median duration of initial response |
| --- | --- |
| CCc1cc2c(cc1N1CCC(N3CCOCC3)CC1)C(C)(C)c1[nH]c3cc(C#N)ccc3c1C2=O [alectinib] | 25.7 months |
| C[C@@H](Oc1cc(-c2cnn(C3CCNCC3)c2)cnc1N)c1c(Cl)ccc(F)c1Cl [crizotinib] | 10.9 months |
